# Results published in US8088763B2 (priority 2004, dated 2012).
# Sequences of proteins named here, by UniProt entry; tags and fusion partners are left off. A change or cut given only in a name is not applied to a line headed by its entry.
# UniProt P41146: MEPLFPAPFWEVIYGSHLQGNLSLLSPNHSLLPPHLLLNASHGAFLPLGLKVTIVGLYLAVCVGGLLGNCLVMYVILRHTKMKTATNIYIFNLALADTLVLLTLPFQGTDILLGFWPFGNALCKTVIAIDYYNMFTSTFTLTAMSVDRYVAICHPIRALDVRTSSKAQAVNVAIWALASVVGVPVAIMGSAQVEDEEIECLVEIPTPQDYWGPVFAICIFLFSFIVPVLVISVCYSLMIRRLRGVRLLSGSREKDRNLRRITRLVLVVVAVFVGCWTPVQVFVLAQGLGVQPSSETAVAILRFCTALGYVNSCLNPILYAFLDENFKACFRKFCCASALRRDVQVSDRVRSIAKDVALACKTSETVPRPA
# UniProt P35372, whole entry, looked up: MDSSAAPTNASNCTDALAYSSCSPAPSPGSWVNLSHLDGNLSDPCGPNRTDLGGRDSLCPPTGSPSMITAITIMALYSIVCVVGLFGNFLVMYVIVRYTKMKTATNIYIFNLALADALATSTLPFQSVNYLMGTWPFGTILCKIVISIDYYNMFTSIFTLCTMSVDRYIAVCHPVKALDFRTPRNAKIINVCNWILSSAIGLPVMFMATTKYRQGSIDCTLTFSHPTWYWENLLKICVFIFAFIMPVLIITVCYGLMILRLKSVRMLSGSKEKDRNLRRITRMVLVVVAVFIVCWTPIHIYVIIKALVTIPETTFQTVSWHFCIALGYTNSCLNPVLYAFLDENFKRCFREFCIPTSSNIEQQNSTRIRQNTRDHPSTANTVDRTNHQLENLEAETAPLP
# Assays:
# ORL1 receptor = ORL1 receptor (Homo sapiens, UniProt P41146); experiment: ORL1 binding: receptor binding assay with 3H-nociceptin/orphanin FQ, membranes of recombinant CHO-ORL1 cells; conditions: 1 μM test compound; 0.5 nM 3H-nociceptin/orphanin FQ
# human μ-opiate receptor = human μ-opiate receptor (Homo sapiens, UniProt P35372); experiment: μ-binding: displacement of [3H]-naloxone, receptor membrane preparation of CHO-K1 cells; conditions: 1 μM test compound; 1 nmol/l [3H]-naloxone
Compound,"ORL1-binding, [1 μM], % inhibition (ORL1 receptor)","μ-binding, [1 μM], % inhibition (human μ-opiate receptor)"
CN(C)C1(c2ccccc2)CCC(NC(=O)CCC(=O)N2CCN(Cc3ccc(C(C)(C)C)cc3)CC2)CC1 (stereo not shown),79%,–
CN(C)C1(c2cccs2)CCC(NC(=O)CCCC(=O)NC2CCC(C(C)(C)C)CC2)CC1 (stereo not shown),91%,–
CCCCCNC(=O)CCC(=O)NC1CCC(c2cccs2)(N(C)C)CC1 (stereo not shown),77%,–
Glutaric acid-(4-dimethylamino-4-thiophen- 2-yl-cyclohexyl)-amide[2-(1H-indol-3-yl)- ethyl]-amide,99%,–
CN(C)C1(c2ccccc2)CCC(NC(=O)CCC(=O)NCCc2ccccc2Cl)CC1 (stereo not shown),93%,–
CCCCc1ccc(NC(=O)CCCC(=O)NC2CCC(c3cccs3)(N(C)C)CC2)cc1 (stereo not shown),97%,–
CN(C)C1(c2cccs2)CCC(NC(=O)CCCC(=O)N2CCc3ccccc3C2)CC1 (stereo not shown),96%,–
CC(NC(=O)CCCC(=O)NC1CCC(c2cccs2)(N(C)C)CC1)C12CC3CC(CC(C3)C1)C2 (stereo not shown),76%,–
CN(C)C1(c2ccccc2)CCC(NC(=O)CCC(=O)NCCc2ccc(Cl)c(Cl)c2)CC1 (stereo not shown),99%,–
CN(C)C1(c2cccs2)CCC(NC(=O)CCC(=O)NCCc2ccc(Br)cc2)CC1 (stereo not shown),88%,–
CN(C)C1(c2cccs2)CCC(NC(=O)CCCC(=O)NCc2cccc(Cl)c2)CC1 (stereo not shown),93%,–
CN(C)C1(c2cccs2)CCC(NC(=O)CCCC(=O)NC2CCc3ccccc32)CC1 (stereo not shown),80%,–
CN(C)C1(c2cccs2)CCC(NC(=O)CCCC(=O)NCc2cccc(Br)c2)CC1 (stereo not shown),97%,–
COc1ccc(OCCNC(=O)CCC(=O)NC2CCC(c3cccs3)(N(C)C)CC2)cc1 (stereo not shown),72%,–
CN(C)C1(c2cccs2)CCC(NC(=O)CCCC(=O)NC2CCCC2OCc2ccccc2)CC1 (stereo not shown),64%,–
CCN(Cc1ccccc1)C(=O)CCCC(=O)NC1CCC(c2cccs2)(N(C)C)CC1 (stereo not shown),78%,–
CCOC(=O)C(Cc1ccc(Cl)cc1)NC(=O)CCCC(=O)NC1CCC(c2cccs2)(N(C)C)CC1 (stereo not shown),73%,–
CN(C)C1(c2cccs2)CCC(NC(=O)CCCC(=O)NCc2cc(Cl)ccc2Cl)CC1 (stereo not shown),98%,–
CN(C)C1(c2cccs2)CCC(NC(=O)CCC(=O)N2CCC(Cc3ccccc3)CC2)CC1 (stereo not shown),96%,–
CN(C)C1(c2cccs2)CCC(NC(=O)CCC(=O)N(CCC#N)CCC#N)CC1 (stereo not shown),39%,–
CN(C)C1(c2ccccc2)CCC(NC(=O)CCC(=O)NCCc2cccc(C(F)(F)F)c2)CC1 (stereo not shown),99%,–
CN(C)C1(c2cccs2)CCC(NC(=O)CCCC(=O)Nc2ccc(OCc3ccccc3)cc2)CC1 (stereo not shown),90%,–
Glutaric acid-(4-dimethylamino-4-thiophen- 2-yl-cyclohexyl)-amide 4-trifluoromethyl- benzylamide,85%,–
CN(CCc1c[nH]c2ccccc12)C(=O)CCC(=O)NC1CCC(c2cccs2)(N(C)C)CC1 (stereo not shown),99%,–
CN(C)C1(c2cccs2)CCC(NC(=O)CCCC(=O)NCCC(c2ccccc2)c2ccccc2)CC1 (stereo not shown),86%,–
CN(C)C1(c2ccccc2)CCC(NC(=O)CCC(=O)N(CCc2ccccc2)Cc2ccccc2)CC1 (stereo not shown),86%,–

Compound,"ORL1-binding, [1 μM], % inhibition (ORL1 receptor)","μ-binding, [1 μM], % inhibition (human μ-opiate receptor)"
"N-[2-(2,6-dichloro-phenyl)-ethyl]-N′-(4- dimethylainino-4-thiophen-2-yl-cyclohexyl)- succinamide",96%,–
CCOc1ccccc1CN(Cc1ccco1)C(=O)CCC(=O)NC1CCC(c2cccs2)(N(C)C)CC1 (stereo not shown),76%,–
CN(C)C1(c2cccs2)CCC(NC(=O)CCC(=O)NCCCc2ccccc2)CC1 (stereo not shown),96%,–
Glutaric acid-(4-dimethylamino-4-thiophen- 2-yl-cyclohexyl)-amide[2-(3-fluoro- phenyl)-ethyl]-amide,97%,–
CN(CCc1c[nH]c2ccccc12)C(=O)CCC(=O)NC1CCC(c2ccccc2)(N(C)C)CC1 (stereo not shown),100%,–
CN(C)C1(c2cccs2)CCC(NC(=O)CCC(=O)N2CCC(C(=O)c3ccc(Cl)cc3)CC2)CC1 (stereo not shown),69%,–
CN(C)C1(c2cccs2)CCC(NC(=O)CCCC(=O)NCC(C)(c2ccccc2)c2ccccc2)CC1 (stereo not shown),71%,–
CN(C)C1(c2cccs2)CCC(NC(=O)CCC(=O)N2CCC(O)(c3cccc(C(F)(F)F)c3)CC2)CC1 (stereo not shown),82%,–
N-(4-dimethylamino-4-thiophen-2-yl- cyclohexyl)-4-oxo-4-[4-(5-trifluoromethyl- pyndrn-2-yl)-piperazin-1-yl]-butyramide,49%,–
CN(C)C1(c2cccs2)CCC(NC(=O)CCC(=O)NCCSCc2ccccc2)CC1 (stereo not shown),98%,–
COc1cccc(C(C)NC(=O)CCC(=O)NC2CCC(Cc3cccc(Cl)c3)(N(C)C)CC2)c1 (stereo not shown),–,56%
CN(C)C1(Cc2cccc(Cl)c2)CCC(NC(=O)CCC(=O)NCc2ccc(Br)cc2F)CC1 (stereo not shown),–,66%
CN(C)C1(Cc2cccc(Cl)c2)CCC(NC(=O)CCC(=O)NCCc2ccc(Cl)cc2)CC1 (stereo not shown),–,62%
CN(C)C1(Cc2cccc(Cl)c2)CCC(NC(=O)CCC(=O)NCc2ccc(Cl)cc2)CC1 (stereo not shown),–,56%
Cc1cccc(CNC(=O)CCC(=O)NC2CCC(Cc3cccc(Cl)c3)(N(C)C)CC2)c1 (stereo not shown),–,69%
Cc1cccc(CC2(N(C)C)CCC(NC(=O)CCC(=O)NCCc3ccccc3)CC2)c1 (stereo not shown),–,60%
Cc1ccc(CC2(N(C)C)CCC(NC(=O)CCC(=O)N(CCC#N)Cc3ccccc3)CC2)cc1 (stereo not shown),–,66%
CN(C)C1(Cc2cccc(Cl)c2)CCC(NC(=O)CCC(=O)NCc2ccc(F)c(C(F)(F)F)c2)CC1 (stereo not shown),–,54%
Cc1cccc(CC2(N(C)C)CCC(NC(=O)CCC(=O)N3CC=C(c4ccccc4)CC3)CC2)c1 (stereo not shown),–,54%
CN(C)C1(Cc2cccc(Cl)c2)CCC(NC(=O)CCC(=O)NCCc2ccc(Cl)cc2Cl)CC1 (stereo not shown),–,52%
CN(C)C1(Cc2cccc(Cl)c2)CCC(NC(=O)CCC(=O)NCc2ccccc2Cl)CC1 (stereo not shown),–,56%
CN(C)C1(Cc2cccc(Cl)c2)CCC(NC(=O)CCC(=O)NCc2cc(F)cc(C(F)(F)F)c2)CC1 (stereo not shown),–,57%
Cc1cccc(CC2(N(C)C)CCC(NC(=O)CCC(=O)N(C)Cc3ccccc3)CC2)c1 (stereo not shown),–,59%
CN(Cc1ccccc1)C(=O)CCC(=O)NC1CCC(Cc2cccc(Cl)c2)(N(C)C)CC1 (stereo not shown),–,67%
CN(C)C1(Cc2ccccc2)CCC(NC(=O)CCCC(=O)NC2CCCc3ccccc32)CC1 (stereo not shown),–,55%
Cc1cccc(CC2(N(C)C)CCC(NC(=O)CCC(=O)NCc3ccccc3C(F)(F)F)CC2)c1 (stereo not shown),–,53%

Compound,"ORL1-binding, [1 μM], % inhibition (ORL1 receptor)","μ-binding, [1 μM], % inhibition (human μ-opiate receptor)"
CN(C)C1(Cc2cccc(Cl)c2)CCC(NC(=O)CCC(=O)NCCCc2ccccc2)CC1 (stereo not shown),–,59%
Cc1cccc(CC2(N(C)C)CCC(NC(=O)CCC(=O)NCc3ccccc3Cl)CC2)c1 (stereo not shown),–,51%
CCN(Cc1ccccc1)C(=O)CCC(=O)NC1CCC(Cc2cccc(C)c2)(N(C)C)CC1 (stereo not shown),–,60%
CN(C)C1(Cc2cccc(Cl)c2)CCC(NC(=O)CCC(=O)NCCc2cccc(C(F)(F)F)c2)CC1 (stereo not shown),–,56%
Cc1cccc(CC2(N(C)C)CCC(NC(=O)CCC(=O)N3CCC(C(=O)c4ccc(Cl)cc4)CC3)CC2)c1 (stereo not shown),–,56%
CN(C)C1(Cc2ccccc2)CCC(NC(=O)CCCC(=O)NCCc2ccccc2)CC1 (stereo not shown),–,72%
Cc1cccc(CC2(N(C)C)CCC(NC(=O)CCC(=O)NCCSCc3ccccc3)CC2)c1 (stereo not shown),–,70%
CN(C)C1(Cc2cccc(Cl)c2)CCC(NC(=O)CCC(=O)NCCc2ccccc2)CC1 (stereo not shown),–,50%
Cc1cccc(CC2(N(C)C)CCC(NC(=O)CCC(=O)N(Cc3ccco3)Cc3ccccc3F)CC2)c1 (stereo not shown),–,62%
CN(C)C1(Cc2cccc(Cl)c2)CCC(NC(=O)CCC(=O)NCCc2ccc(Oc3ccccc3)cc2)CC1 (stereo not shown),–,55%
Cc1cccc(CC2(N(C)C)CCC(NC(=O)CCC(=O)NCCc3ccccc3Cl)CC2)c1 (stereo not shown),–,61%
CC1CC(C)CN(C(=O)CCC(=O)NC2CCC(Cc3cccc(Cl)c3)(N(C)C)CC2)C1 (stereo not shown),–,56%
Cc1cccc(CC2(N(C)C)CCC(NC(=O)CCC(=O)NCC(C)c3ccc(Cl)cc3)CC2)c1 (stereo not shown),–,58%
Cc1cccc(CC2(N(C)C)CCC(NC(=O)CCC(=O)NCc3cccc(C)c3C)CC2)c1 (stereo not shown),–,69%
Cc1cccc(CC2(N(C)C)CCC(NC(=O)CCC(=O)NCCc3ccc(Cl)cc3Cl)CC2)c1 (stereo not shown),–,50%
CCOc1ccccc1CCNC(=O)CCC(=O)NC1CCC(Cc2cccc(Cl)c2)(N(C)C)CC1 (stereo not shown),–,50%
Cc1ccc(CC2(N(C)C)CCC(NC(=O)CCC(=O)NCCc3ccc(Cl)cc3)CC2)cc1 (stereo not shown),–,54%
CN(C)C1(Cc2cccc(Cl)c2)CCC(NC(=O)CCC(=O)NCCc2cccs2)CC1 (stereo not shown),–,60%
CN(C)C1(Cc2cccc(Cl)c2)CCC(NC(=O)CCC(=O)NCCc2cccc(Cl)c2)CC1 (stereo not shown),–,58%
CN(C)C1(Cc2cccc(Cl)c2)CCC(NC(=O)CCC(=O)N(Cc2ccco2)Cc2ccccc2F)CC1 (stereo not shown),–,54%
CN(C)C1(Cc2cccc(Cl)c2)CCC(NC(=O)CCC(=O)NCc2ccc(F)c(F)c2)CC1 (stereo not shown),–,57%
N-[4-(3-chloro-benzyl)-4-dimethylamino- cyclohexyl]-N′-(1-naplithalen-1-yl-ethyl)- succinamide,–,54%
Glutaric acid-(4-benzyl-4-dimethylamino- cyclohexyl)-amide[2-(2-ethoxy-phenyl)- ethyl]-amide,–,90%
CN(C)C1(Cc2cccc(Cl)c2)CCC(NC(=O)CCC(=O)NCc2ccc(Cl)c(Cl)c2)CC1 (stereo not shown),–,80%
